Measured affinities in a library of Ab-14 light chain variants

Source: Li et al. 2023 (doi:10.1038/s41467-023-39022-2), MIT Lincoln Laboratory and A-Alpha Bio; data file from the FLAb repository.

All variants were tested on one target, the spike HR2 peptide PDVDLGDISGINAS (SARS-CoV-2).

Parent scFv Ab-14: VH joined to VL by a 15-residue (Gly4Ser)3 linker. Changes lie in the light chain CDRs alone.
VH: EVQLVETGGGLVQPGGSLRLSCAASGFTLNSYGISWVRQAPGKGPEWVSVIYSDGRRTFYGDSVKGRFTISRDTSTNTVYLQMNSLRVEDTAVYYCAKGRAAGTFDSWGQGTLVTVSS
VL: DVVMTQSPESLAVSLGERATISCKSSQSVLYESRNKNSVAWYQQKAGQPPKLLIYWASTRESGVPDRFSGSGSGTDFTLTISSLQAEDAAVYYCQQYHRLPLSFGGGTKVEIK

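The parent was found by panning a naive human phage display library on the peptide. The variants were designed computationally from a first round of random CDR variants and then made and measured. Their group label is 14L_En_HC (En: ensemble of fine-tuned language models; HC: hill climbing; a sequence that several methods proposed may carry one label only). Affinity was read by AlphaSeq, a pooled yeast mating assay with surface-displayed partners. After mating in shaken culture at 30 °C for 16 h, diploids were selected and their barcode pairs sequenced. Read counts were normalised to the haploid input and turned into Kd by a linear fit to BCL2-family pairs of known affinity, for each replicate. Each pool was mated in six replicate cultures.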

The parent's light chain CDRs are KSSQSVLYESRNKNSVA, WASTRES, QQYHRLPLS; each variant's own CDRs replace them letter for letter.
Values are log10 of the apparent Kd in nM; lower means stronger binding.
"nd" marks a missing value. The strain was present, yet no cells mated with the target were sequenced in that replicate, which points to weak or no binding.
Nonspecific signal, from three strains lacking the peptide, appeared in 4% of pairings of all light chain designs, centred on 2.64 (5% of these signals below 1.59); values are not corrected for it. The control count says in how many pairings with the empty strains this scFv gave a signal.
The parent sequence was in this pool as ten entries: three were never detected, three once, and four in most replicates, with averages from 0.34 to 2.37.
In the paper, a design with two or fewer of six values counts as a poor binder.
The range of this assay differs from that of the first round, and the authors advise against merging the two.

Variant KLSMFHNLEQINKSNVA | EMVTREN | QQYDRLPLS gave 1.41, 1.18, 0.92, 1.44, 1.33, 0.89 (controls 1 of 18).
Variant KLSMSVRMETFVKDNVA | ENSTRED | QDYHRLPLS gave 3.17, nd, nd, 3.38, nd, 3.13 (controls 0 of 18).
Variant TISSSVNMTSHGRNSVA | QAEMRES | QQYDRLPLS gave 2.01, 1.37, 1.54, 0.82, 1.24, 1.24 (controls 0 of 18).
Variant TLGDVTRMESNKKSSIA | DMSNRAA | QQYHRLPIS gave 0.17, 1.09, 0.33, 0.92, 0.95, 0.83 (controls 0 of 18).
Variant SITQLVAYGSRNKNSVA | QMSTREN | QQYDRLPLS gave 0.47, -0.16, 0.07, -0.05, 0.45, 0.66 (controls 0 of 18).
Variant MLSDLVKMGSRETNSVA | DNSTRGS | QQYDRLPLS gave 1.00, 1.77, 1.47, 1.32, 1.59, 0.96 (controls 1 of 18).
Variant TISQMFLGESRNRNSVA | QTSTRES | QSYDRLPLS gave 1.05, 1.10, 0.48, 0.70, 0.89, 0.89 (controls 0 of 18).
Variant TLSDLMYMESRNVNSVA | DLVKREN | QQYHRLPLS gave 0.31, 0.01, 0.10, 0.05, 0.00, 0.27 (controls 0 of 18).
Variant KLNISYLFESLEKNSIA | ENSTREK | QHYHRLPLS gave nd, nd, nd, 2.11, nd, nd (controls 0 of 18).
Variant TLMQVGGYETNAHNSIA | DLRTRES | QQYHRLPLS gave 0.68, 0.94, 1.03, 0.31, 0.82, 1.09 (controls 1 of 18).
Variant KLSVMSSYLSVNKNSVA | EMSTREN | QQYDRLPLS gave 0.73, 0.58, 0.97, 0.68, 1.91, 2.08 (controls 0 of 18).
Variant TISTMMRYESSLKNAIA | NAQTRES | QQYHRLPLS gave nd, nd, nd, nd, nd, nd (controls 1 of 18).
Variant TISQSANQESHNKNSVA | DLSVRGS | QQYHRLPLS gave 0.59, 0.66, 0.52, 0.56, 0.93, 0.92 (controls 2 of 18).
Variant MFSQLFMYGSRNYNSVA | QASTRES | QQYDRLPLI gave nd, nd, nd, 3.12, nd, nd (controls 0 of 18).
Variant MFSQSVMTGSFMRNSVA | QTSTRES | QQYDRLPLS gave 0.89, 0.53, 0.67, 0.71, 0.73, 0.87 (controls 0 of 18).
Variant HMSQVTMYGYWNKNSVA | QTSTREE | QQYDRLPLS gave 0.73, 0.54, 0.84, 0.10, 0.40, 0.45 (controls 3 of 18).
Variant ILSQMLLTAGNKYNSVA | QANYRES | QQYHRLPLS gave 0.43, 0.58, -0.04, -0.18, 0.72, 0.11 (controls 0 of 18).
Variant KLGSSTRFESSNKANIA | DNSTRES | QQYHRLPLS gave 0.54, 0.55, 0.14, -0.03, 0.30, 0.47 (controls 0 of 18).
Variant MISQLFMYGSRNYNSVA | QASKRES | QQYDRLPLI gave 0.98, 1.13, nd, nd, 2.44, 1.50 (controls 1 of 18).
Variant NLSISMLHESINKHNVA | EVRTRES | QQYDRLPLS gave 0.88, 0.57, 1.14, 0.84, 0.93, 0.78 (controls 0 of 18).
Variant HLGDSVKMESRNTNSVA | DNSTRGS | QQYDRLPLS gave 0.93, 0.94, 0.53, 0.67, 0.50, 1.00 (controls 0 of 18).
Variant KFGQMVLTGAYVSNSVA | QMSTRVN | QQYHRLPLM gave 0.43, 0.49, 0.92, 0.67, 1.23, nd (controls 1 of 18).
Variant NISQMIFMETKNVNNVA | QTSTRES | QDYHRLPLS gave 0.31, 0.27, 0.58, 0.18, 0.28, 0.44 (controls 1 of 18).
Variant SLSMSMAFLSRNKNNVA | ENSTRES | QQYHRLPLL gave 1.27, 0.34, 0.62, 0.61, 1.35, 1.02 (controls 0 of 18).
Variant MISDLTMYGSRNKYSVA | DLSTRGS | QQYHRLPLS gave 0.80, 0.84, 0.54, 1.00, 0.96, 0.97 (controls 1 of 18).
Variant KLSIFHQVESINKSNVA | EMVTREN | QQYDRLPLS gave nd, 1.33, nd, nd, nd, 2.75 (controls 2 of 18).
Variant KITGMWTFEMHNRNNIA | EESTRED | QSYHRLPLS gave 0.64, 0.66, 0.58, 0.40, 0.47, 0.59 (controls 0 of 18).
Variant MISQMFDGLSTSKNPVA | QVSTREE | QQYHRLPLS gave 2.78, 1.45, 0.99, 1.09, 1.50, 1.59 (controls 0 of 18).
Variant NLYQSMNFLGRVMNSIA | DASTIPD | QQYHRLPLS gave nd, nd, nd, nd, nd, nd (controls 0 of 18).
Variant TLSDLMYMESRNANSVA | DLVKRES | QQYHRLPLS gave -0.05, -0.14, -0.32, -0.30, -0.25, 0.00 (controls 2 of 18).
Variant KLLQTVANGRYNRNNVA | HMTMRED | QQYFRLPLS gave nd, nd, 1.06, nd, 1.77, 2.09 (controls 0 of 18).
Variant TLGQVTMVESYNKNSVA | QVSTRLE | QDYHRLPLS gave nd, nd, 2.62, nd, 2.58, 3.31 (controls 0 of 18).
Variant HISQMWMLESRNINNVA | EESTRED | QSYFRLPLS gave 0.36, 0.46, 0.66, 0.50, 0.79, 0.57 (controls 0 of 18).
Variant KVGDSMAFLSRNRNSVA | DNSTRGS | QQYHRLPLS gave 0.97, 0.98, 1.08, 1.15, 1.33, 0.88 (controls 1 of 18).
Variant KISYQYRFEQLSTNNIA | EVVTRLK | QQYHRLPLS gave 1.20, 0.60, 0.78, 0.44, 0.68, 0.69 (controls 1 of 18).
Variant MISQLFMYGSRNYASIA | QASTREK | QQYDRLPLI gave nd, nd, nd, nd, nd, nd (controls 0 of 18).
Variant KLSATYRYESQNKNSIA | EMTTRGS | QCYHRLPLS gave 1.48, 1.52, 2.82, 1.82, 2.07, 2.98 (controls 0 of 18).
Variant IISGSALMESRNKNSVA | NAETREY | QHYDRLPLS gave 2.13, nd, 1.97, 1.96, 2.75, 2.48 (controls 2 of 18).
Variant KISMMYRFEQTASNNIA | EMTTRAE | QSYHRLPLS gave 1.61, 1.75, 1.89, 1.65, 0.86, 1.51 (controls 0 of 18).
Variant TISTSMRYESSLKNAIA | NAQTRED | QQYHRLPLS gave -0.07, 0.12, -0.32, 1.12, 0.54, -0.25 (controls 0 of 18).
Variant KISQNMGETQRNKNSVA | EVSTVPP | QQYWRLPLS gave 1.81, 1.80, 2.32, 1.02, 1.28, 2.21 (controls 1 of 18).
Variant KISQSILFMSGTKNAIA | QMEMREE | QQYHRLPLS gave 0.75, 0.15, 0.68, 0.11, 0.24, 0.33 (controls 0 of 18).
Variant KLSATYRFESQNKNSIA | EMTTRES | QCYHRLPLS gave 1.94, 1.63, 3.08, 2.36, 1.63, 3.21 (controls 0 of 18).

The first 4 entries again:

CDR-L1	CDR-L2	CDR-L3	log10 Kd, replicates	control signals
KLSMFHNLEQINKSNVA	EMVTREN	QQYDRLPLS	1.41, 1.18, 0.92, 1.44, 1.33, 0.89	1 of 18
KLSMSVRMETFVKDNVA	ENSTRED	QDYHRLPLS	3.17, nd, nd, 3.38, nd, 3.13	0 of 18
TISSSVNMTSHGRNSVA	QAEMRES	QQYDRLPLS	2.01, 1.37, 1.54, 0.82, 1.24, 1.24	0 of 18
TLGDVTRMESNKKSSIA	DMSNRAA	QQYHRLPIS	0.17, 1.09, 0.33, 0.92, 0.95, 0.83	0 of 18